# How the values were obtained:
# By UniProt entry, the sequences of proteins in these tests, tags left out. Residues count along the entry.
# UniProt Q14790, 385-479 limits assumed, species assumed: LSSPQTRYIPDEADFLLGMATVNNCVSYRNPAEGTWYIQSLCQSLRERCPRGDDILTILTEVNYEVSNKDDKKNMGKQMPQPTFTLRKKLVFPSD
# UniProt Q14790, 217-374 limits assumed, species assumed: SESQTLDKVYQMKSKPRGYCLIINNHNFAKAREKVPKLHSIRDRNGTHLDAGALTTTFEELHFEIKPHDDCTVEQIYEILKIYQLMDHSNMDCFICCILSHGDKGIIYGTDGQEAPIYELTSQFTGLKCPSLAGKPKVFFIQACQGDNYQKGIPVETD
# [1] = molecular target: T1, caspase-8 (Homo sapiens, UniProt Q14790); conditions: peptide of the aldehyde type; read-out: Ki, actual measured value; cited from earlier work
# [2] = molecular target: T1, caspase-8; experiment: Actual measured Ki of aldehyde-type peptide inhibitors (Garcia-Calvo et al.); format: biochemical; conditions: converted from measured Ki by ΔG=RT ln Ki
substance,measurement,setting,value
Boc-IETD-CHO,Ki,[1],1.05 nM
same,Obs. ΔG,[2],-12.25 kcal/mol
